Data taken from patent publication US20090162459A1, “Combination Therapy for Treatment of Patients with Neurological Disorders and Cerebral Infarction” (priority 2006, published 2009).

Test system: blood coagulation
Assay: Phase IV open-label study NeuroAid®/aspirin interaction in healthy volunteers, 5 coagulation tests
Format: in vivo, human
Conditions: 11 healthy volunteers per group
Procedure: An open randomized one-day study was conducted on 11 healthy volunteers receiving NeuroAid® treatment (12 capsules per day) and aspirin (ASA 300 mg per day) from day 1 to day 5, and 11 healthy volunteers receiving aspirin alone (300 mg per day) from day 1 to day 5. Blood samples of the subjects were collected before they received treatment and 2 and 8 hours after treatment initiation.

- Quick Prothrombine Time, Mean (T + 2 hours): 12.6 s
- Activated Partial Prothrombine Time, Mean (T + 8 hours): 38.2 s
- Quick Prothrombine Time, Mean (T + 8 hours): 12.4 s
Compound: CC(=O)Oc1ccccc1C(=O)O [Aspirin alone, Acetylsalicylic Acid]
